The assay deals with Human KLKB1 (Homo sapiens (Human), UniProt P03952). In words: KLKB1 kallikrein activity inhibition assay (chromogenic substrate S-2302). To be noted: read-out: KLKB1 Activity. The assay is classed as biochemical.

Sequences of proteins named here, by UniProt entry; tags and fusion partners are left off. Residues count along the entry.
UniProt P03952, 391-638 limits assumed: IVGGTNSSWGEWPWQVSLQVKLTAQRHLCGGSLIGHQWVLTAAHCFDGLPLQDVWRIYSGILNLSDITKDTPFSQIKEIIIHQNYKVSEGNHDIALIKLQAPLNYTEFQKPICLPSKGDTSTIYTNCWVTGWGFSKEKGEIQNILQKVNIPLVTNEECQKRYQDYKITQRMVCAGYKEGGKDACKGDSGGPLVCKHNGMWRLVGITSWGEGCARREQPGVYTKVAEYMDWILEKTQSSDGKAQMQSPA
UniProt P03952, 20-390 partner limits assumed: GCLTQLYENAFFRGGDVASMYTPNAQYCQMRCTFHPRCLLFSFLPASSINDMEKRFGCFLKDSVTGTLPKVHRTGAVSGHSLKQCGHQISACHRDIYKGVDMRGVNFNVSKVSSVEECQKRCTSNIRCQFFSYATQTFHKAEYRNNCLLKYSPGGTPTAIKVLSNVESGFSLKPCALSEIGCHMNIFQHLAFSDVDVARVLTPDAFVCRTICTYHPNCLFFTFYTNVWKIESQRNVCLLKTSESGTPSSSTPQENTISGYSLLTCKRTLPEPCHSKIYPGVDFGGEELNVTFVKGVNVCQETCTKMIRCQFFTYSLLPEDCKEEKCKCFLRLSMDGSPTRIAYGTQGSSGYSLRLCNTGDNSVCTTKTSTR

In the case of `CCOC(=O)c1cn(-c2ccccn2)nc1NCc1ccc(F)cc1`, the IC50 was > 100 µM.

Values taken from patent publication US9687479B2, “Multisubstituted aromatic compounds as serine protease inhibitors” (VERSEON CORPORATION, priority 2013, dated 2017).
